Test results from patent US8877795B2, “Identification of stabilizers of multimeric proteins” (The Board of Trustees of the Leland Stanford Junior …, priority 2010, dated 2014).

Target: wild type biotinylated TTR (Homo sapiens (Human), UniProt P02766)
Test: Surface plasmon resonance (SPR) assay for TTR-ligand interaction
Settings: 25° C., one-to-one model; read-out: Kd (SPR, binding kinetics)
Experimental: To an ice-cold solution of TTR (20 μM) in PBS was added EZ-Link Sulfo-NHS-LC-Biotin at a ratio of ˜2:1 (biotin:TTR) (minimal biotinylation) and the solution was incubated at room temperature. After 1 hour, un-reacted biotin was removed by passing the sample over a fast (FPLC) desalting column (Superdex™ 75) equilibrated with PBS.
SPR measurements were performed at 25° C. using a Biacore T100 (GE Healthcare) instrument equilibrated in 1% DMSO in PBS as a running buffer. After pretreatment of the streptavidin-coated chip (Sensor Chop SA, Biacore), ˜4000 RU biotinylated TTR was immobilized on one channel leaving the second flow channel as a blank (streptavidin alone) control. For binding measurements, HTS hits were diluted in running buffer (1% DMSO/PBS) and different dilution series were flowed over the chip at 50 μL/min ([…], 600 s wash). A zero concentration sample was used as a negative control. The kinetic data was fitted to a one-to-one binding model using Biacore T100 evaluation software.

SMILES: O=C(c1cc(O)c(O)c([N+](=O)[O-])c1)c1ccccc1F [Ro 41-0960, reference compound]
- Kd: 0.056 ± 0.00414 µM
